Test results as given in article PMC9776037.

Key:
[1] = biological target: α2 portion of the human α2δ1 protein (voltage-sensitive calcium channel subunit) (human); assay: localized surface plasmon resonance (LSPR); α2 amide-coupled to gold triangular nanoprisms on glass; sensors incubated with 1 × 10^−16 to 1 × 10^−8 M PLN or PLN domains in PBS pH 7.2; Δλ_LSPR by UV-visible spectroscopy; KD from Hill-Langmuir fit with extrapolated Bmax
[2] = biological target: α2 portion of the human α2δ1 protein (voltage-sensitive calcium channel subunit) (human); assay: localized surface plasmon resonance (LSPR); α2-functionalized sensors incubated overnight with full-length PLN (10 nM) or PLN Dm III-2 (100 nM), no GBP; Δλ_LSPR
[3] = biological target: α2 portion of the human α2δ1 protein (voltage-sensitive calcium channel subunit) (human); assay: localized surface plasmon resonance (LSPR); α2-functionalized sensors incubated overnight with full-length PLN (10 nM) or PLN Dm III-2 (100 nM), then overnight with gabapentin (GBP, 0.33 mg/mL); Δλ_LSPR of the second step

“Full-length perlecan (PLN), digested with heparanase and chondroitinase (from UniProt P98160 22-4391) (natural protein)” showed a Kd [1] of 260 nM.
With “Full-length perlecan (PLN), undigested (native form) (from UniProt P98160 22-4391) (natural protein)” the Δλ LSPR [2] was 14.4 nm, the Δλ LSPR on adding GBP after PLN [3] was -4.1 nm and the Kd [1] was 3.6 nM.
